# Source: PubChem BioAssay AID651820 (National Center for Advancing Translational Sciences (NCATS), 2012)
# Out of some 340,000 compounds screened, about 12,000 (3.5%) were called active. The source calls these results inconclusive, neither active nor inactive. The call rests on the fitted dose curve; in most records, active means well fitted inhibition curve with a large enough effect; inconclusive means small, poorly fitted or top-dose-only effect, or another doubt; inactive means no such curve, though single readings can be large or run the other way.
# Experiment: qHTS Assay for Inhibitors of Hepatitis C Virus (HCV)
# Settings: Huh7.5.1 HCVcc-Cre (HCVcc is cell-culture hepatitis C virus) infection, luciferase reporter, 44 h
# Source text: Hepatitis C virus (HCV) infects about 200 million people in the world. Many infected people progress to chronic liver disease including cirrhosis with a risk of developing liver cancer. To date, there is no effective vaccine for hepatitis C. Current therapy based on interferon is only effective in about half of the patients and is associated with significant adverse effects. The fraction of people with HCV who can complete a successful treatment is estimated to be no more than 10 percent. Recent development of direct-acting antivirals against HCV, such as protease and polymerase inhibitors, is promising but still requires combination with peginterferon and ribavirin for maximal efficacy. In addition, these agents are associated with high rate of resistance and many have significant side effects. Due to the lack of a culture system for infectious HCV, the search for new HCV drugs has been greatly hampered. […] High-throughput screening (HTS) with an infectious HCV system would cover the complete spectrum of potentially druggable targets in all stages of HCV lifecycle, and would have more biological relevance than other cell-based assays. Moreover, targeting several key processes in the viral life cycle may not only increase antiviral efficacy; more importantly, it may also reduce the capacity of the virus to develop resistance to the compound. The goal of this project is to identify novel HCV inhibitors as new therapies for hepatitis C, using a highly sensitive and specific assay platform which is based on a HCV infectious cell culture system established in the laboratory and adapted for high-throughput HCV drug screen. NIH Chemical Genomics Center [NCGC] NIH Molecular Libraries Probe Centers Network [MLPCN] MLPCN Grant: MH095511 Assay Submitter (PI): Jake Liang, NIDDK
# The assay will start with plating 1,000 cells/well in 3 µL volume and culture for 4 h. Then 23 nL of compounds from the library collection will be added to each well, followed by adding 2.5 µL of HCVcc-Cre virus (~ 0.5 moi) and further cultured for 44 h before the luciferase assay. A volume of 4.5 µL luciferase substrates will be added to each well and the plates will be incubated at room temperature for 15 min. and then read for 15 sec. for the luciferase activity
row,SMILES,Potency
1,Cc1ccc(NCCc2c([N+](=O)[O-])cc([N+](=O)[O-])cc2[N+](=O)[O-])cc1,inconclusive: 11.2 µM
2,C=C(C=O)CC1CC(O)[C@]2(C)OC3CC4OC5C[C@]6(C)O[C@]7(C)CCC8OC9C[C@]%10(C)OC%11C(C)=CC(=O)OC%11CC%10OC9C[C@@H](C)C8OC7CC6O[C@]5(C)CC5OC5C4OC3CC2O1 (stereo partly specified),inconclusive: 31.6 µM
3,CCC1=CC2Cc3nc4ccc(Cl)cc4c(N)c3C(C1)C2 (stereo unspecified),inconclusive: 11.2 µM
4,CC(=O)OCC12CC(OC(=O)CC(C)C)C(C)=CC1OC1C(O)C(OC(C)=O)C2(C)C12CO2 (stereo unspecified),inconclusive: 7.94 µM
5,Cc1ccc2nc3c(c(C)c2c1)CC(C(Cl)Cl)S3 (stereo unspecified),inconclusive: 8.91 µM
6,CC(O)C1C=CC=CC(=O)OC2CC3OC4C5OC5(C)CCC4(COC(=O)C4OC4(C)C(O)CO1)C2(C)C31CO1 (stereo unspecified),inconclusive: 100 µM
7,O=C(OC1CN2CCC1CC2)C12CC3CC(CC(C3)C1)C2 (stereo unspecified),inconclusive: 35.5 µM
8,Cc1c2c(nc3ccccc13)SC(C(Cl)Cl)C2 (stereo unspecified),inconclusive: 10 µM
9,COc1cc(I)ccc1[As](=O)(O)O,inconclusive: 2.51 µM
10,COc1ccc(O)c2c(=O)c3c(OC)cc4c(c3oc12)C1C=COC1O4 (stereo unspecified),inconclusive: 2.82 µM
11,CC(O)C1C=CC=CC(=O)OC2CC3OC4C5OC5(C)C(O)CC4(COC(=O)C(O)C(C)CCO1)C2(C)C31CO1 (stereo unspecified),inconclusive: 0.316 µM
12,CC1=CC2OC3CC4OC(=O)C=CC=CC(C(C)O)OCC(O)C5(C)OC5C(=O)OCC2(CC1O)C4(C)C31CO1 (stereo unspecified),inconclusive: 3.16 µM
13,Clc1ccc(Cl)c(NC2=NCC(CBr)S2)c1 (stereo unspecified),inconclusive: 25.1 µM
14,Nc1cccc2ccc([As](=O)(O)O)cc12,inconclusive: 22.4 µM
15,CC(=O)O[C@H]1C[C@@H]2OC3C=C(C)CCC3(C)[C@@]1(C)[C@@]21CO1 (stereo partly specified),inconclusive: 3.55 µM
16,C=C(C=O)C[C@@H]1C[C@H](O)C2OC3C[C@]4(C)OC5/C=C\CC6OC7C(CC=CCC6OC5CCCC4OC3CC2O1)OC1CC2OC3CC(=O)OC3C[C@@H](C)C[C@@]2(C)OC1C[C@@H]7C (stereo partly specified),inconclusive: 5.01 µM
17,CCc1nc2c(n1)c1c(non1O)c1c2no[n+]1[O-],inconclusive: 31.6 µM
18,O=[N+]([O-])c1cc([N+](=O)[O-])c(CCNc2ccccc2)c([N+](=O)[O-])c1,inconclusive: 11.2 µM
19,CC(=O)NC(SC(=S)N(C)C)C(Cl)(Cl)Cl (stereo unspecified),inconclusive: 1.41 µM
20,O=c1c2cc([N+](=O)[O-])ccc2[nH]c2c([N+](=O)[O-])cc([N+](=O)[O-])cc12,inconclusive: 3.55 µM
21,CC1=CC2OC3CC4OC(=O)C=CC=CC(=O)OCCC(C)C(O)C(=O)OCC2(CC1)C4(C)C31CO1 (stereo unspecified),inconclusive: 0.316 µM
